Assay results: patent US20250359578A1, “WATER-SOLUBLE CREATINE AGGLOMERATE” (Alzchem Trostberg GmbH, priority 2022, published 2025)

Assay: Determination of the dissolution rate (mass of filter residue)
Type: physicochemical
Settings: summary of Table 4, listed as finely ground creatine monohydrate
Text: The moist filter residue is dried. The mass of the filter residue serves as a measure of the dissolution rate; the lower the mass, the better the dissolution rate.

For `CN(CC(=O)O)C(=N)N.O` [Example 6, creatine monohydrate], the “dissolution rate (in words)” value was “high dissolution rate”.
